Experimental data: US7741280 (CENTRE NATIONAL DE LA RECHERCHE SCIENTIFIQUE, dated 2010)

Molecular target: T1, human CD154 muCD8 fusion protein, ANCELL Corporation (mouse; human, UniProt P01731, in part; P29965, in part)
T1 construct: Bought reagent; injected as analyte in the Biacore experiments; also called CD40L
Assay: SPR (Biacore 3000); CD40 muIg captured on rabbit anti-mouse Ig chip; CD40L as analyte at 4 concentrations from 62.5 to 500 nM
Procedure: Rabbit antibodies directed against the constant region of mouse immunoglobulins were immobilized on a microchip. In the reference cell a monoclonal mouse antibody of isotype IgG2a (LG112) at 40 nM is immobilized with a flow of 5 µL/min for 2 minutes; in the cell of the ligand the recombinant CD40 associated with the constant region of the mouse IgG2a heavy chain (human CD40 muIg fusion protein, ANCELL Corporation, Bayport, Minn.) is immobilized under the same conditions.
The flow in the presence of the analytes is 10 µL/min for 5 minutes to study the association and, in the absence of analytes, the conditions are the same to study the dissociation.
The equilibrium constant is calculated at 54 nM.

B1: human CD40 muIg fusion protein (recombinant CD40 associated with the constant region of the mouse IgG2a heavy chain), ANCELL Corporation (Fc fusion, UniProt P25942 21-193, looked up)
chain: EPPTACREKQYLINSQCCSLCQPGQKLVSDCTEFTETECLPCGESEFLDTWNRETHCHQHKYCDPNLGLRVQQKGTSETDTICTCEEGWHCTSEACESCVLHRSCSPGFGVKQIATGVSDTICEPCPVGFFSNVSSAFEKCHPWTSCETKDLVVQQAGTNKTDVVCGPQDRLR
notes: Bought reagent; Captured on the Biacore chip through rabbit anti-mouse immunoglobulin antibodies; not shown: constant region of the mouse IgG2a heavy chain
  Kd: 54 nM
